For `CCN(CC)CC(=O)Nc1c(C)cccc1C` [lidocaine free base, lidocaine], for the setting “Example 1 composition adjusted to pH=4.0 with more citric acid”, the “lidocaine crystallization, vial 2” value is “several lidocaine free base crystals”. Where the note is “Example 1 composition adjusted to pH=4.5”, the “lidocaine crystallization, vial 3” value is given as “no lidocaine free base crystallization was observed”. Further, the “lidocaine crystallization, vial 1” value (Example 1 composition, vial 1 (pH=3.5), more citric acid) is recorded as “more lidocaine free base crystals”.
